Data as given in US10221459B2, “Compositions and methods of treating cancer harboring PIKC3A mutations” (Case Western Reserve University, priority 2014, dated 2019).

System: HCT116 PIK3CA mutant cell
Settings: glutamine deprived, supplemented with 4 mM α-KG, 3 days; less than 8% survived without α-KG

Which cell survival does the source give for α-ketoglutarate [α-KG] here?
The cell survival was ~60%.
